CDK5 inh – CDK5/p35 (human) kinase inhibition. inhibition, % at 10 µM. actives 0.01% (n = 330,000). Q00535+Q15078. Recombinant CDK5/p35, ADP-Glo luminescence, 60 min;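 active = highest replicate inhibition of at least 50% and at least 75% of replicates reaching 50%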;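 also: plate controls were DMSO neutral control for no effect and GW8510 at 10 µM for full effect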
CAL PDZ FP-1 – inhibitors of human CAL PDZ peptide binding; Q9HD26; actives 0.92% (n = 300,000); inhibition, % at 24.9 µM; AID 602252; purified CAL PDZ, TMR-peptide fluorescence polarization, 1 h;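 active = mean inhibition of at least 30% with at least half of replicates also reaching 30%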;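 also: 0% = DMSO neutral control and 100% = excess unlabeled competitor peptide PRC23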
dFosB activator – mouse delta FosB homodimer activation. P13346. purified delta FosB, TAMRA-CDK5 oligo fluorescence polarization; percent of positive-control signal above neutral wells. activation, % at 25 µM. actives 0.99% (n = 340,000). AID 493131;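 active = mean activation above about 17%, with every replicate also reaching it, limit read from the data, passing the limit was not always enough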
UUG fidelity – modulators of start codon recognition fidelity in yeast; AID 602363; activity score, % at 18.7 µM; S. cerevisiae UUG-firefly luciferase reporter, luminescence/redox ratio; actives 0.13% (n = 350,000);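 active = replicate mean at a twofold rise or more, about +100% in these data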;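 note: firefly luciferase made from a UUG start codon reports start codon fidelity; reporter light over untreated wells divided by growth signal over untreated wells; some hits fall short of that in this replicate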
Dyrk1A ADPGlo – blocks rat Dyrk1A kinase activity; ADP-Glo luminescence, NFATc1 peptide; actives 0.43% (n = 310,000); inhibition, % at 12.5 µM; in the data active = inhibition above about 50%;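 also: plate controls were vehicle with enzyme for no effect and no enzyme for full effect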
CAL PDZ FP-2 – inhibitors of human CAL PDZ peptide binding | Q9HD26 | purified CAL PDZ, TMR-peptide fluorescence polarization, 1 h | inhibition, % at 20 µM | actives 0.02% (n = 330,000);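 active = highest replicate inhibition of at least 40%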;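 also: plate controls were DMSO neutral control wells for no effect and unlabeled competitor peptide control wells for full effect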
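Test system: tagged CAL PDZ domain / Buffer or medium: sodium phosphate/NaCl buffer pH 7.4 with TCEP, IgG, Thesit / Reagent: TMR-labelled reporter peptide T*-PRC34 bound in PDZ groove / Compound dosing: single point, 20 µM / Schedule: 1 h incubation at room temperature before polarization reading / Technique: fluorescence polarization (mP) / Benchmarks: unlabelled peptide, DMSO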
* marks the source's active call; other numbers are inactive results; nt = no result given; + = active, no number. Sampled rows, rich in hits. Any-hit rate of the full collection: about 1.7%.

Start of the listing, in advance, 2 compounds:
| CAL PDZ FP-2 | CDK5 inh | Dyrk1A ADPGlo | CAL PDZ FP-1 | dFosB activator | UUG fidelity | compound |
| --- | --- | --- | --- | --- | --- | --- |
| 0.7 | -0.8 | 3.9 | -8.2 | -7.0 | 11.6 | CCOC(=O)N1CCC(N2C(=O)c3ccccc3C2Nc2ccc(C)cc2)CC1 (configuration not stated) |
| -0.8 | -1.5 | -0.2 | 67.0* | -16.9 | nt | CCOC(=O)N1CCC(N2C(=O)c3ccccc3C2Nc2ccc(S(=O)(=O)N(CC)CC)cc2)CC1 (configuration not stated) |

Main list (from the top)
| CAL PDZ FP-2 | CDK5 inh | Dyrk1A ADPGlo | CAL PDZ FP-1 | dFosB activator | UUG fidelity | compound |
| --- | --- | --- | --- | --- | --- | --- |
| 0.7 | -0.8 | 3.9 | -8.2 | -7.0 | 11.6 | CCOC(=O)N1CCC(N2C(=O)c3ccccc3C2Nc2ccc(C)cc2)CC1 (configuration not stated) |
| -0.8 | -1.5 | -0.2 | 67.0* | -16.9 | nt | CCOC(=O)N1CCC(N2C(=O)c3ccccc3C2Nc2ccc(S(=O)(=O)N(CC)CC)cc2)CC1 (configuration not stated) |
| -0.2 | 0.2 | -3.2 | 31.8* | -7.2 | -0.9 | COCCOCC(O)CN1CCN(c2ccccc2)CC1 (configuration not stated) |
| -0.6 | 1.1 | -2.6 | 1.3 | 0.1 | -10.3 | COCCOCC(O)CN1CCN(c2ccc(C)cc2)CC1 (configuration not stated) |
| nt | -1.0 | nt | 55.8* | 5.8 | -7.3 | COc1cc(N)ccc1Cc1ccc(N)cc1OC |
| 0.0 | -0.5 | -8.6 | 5.3 | -10.5 | -6.2 | COc1ccc(N)cc1C#N |
| -1.3 | 0.2 | -8.7 | 50.2* | -6.9 | 0.4 | Cc1ccc([C@@H]2CC=C(C(=O)O)[C@H](c3ccccc3)N2S(=O)(=O)c2ccc(C)cc2)cc1 |
| -1.6 | -0.5 | nt | -2.8 | -4.5 | nt | CCC(=O)n1nc(-c2ccc(OC)cc2)nc1NCc1cccs1 |
| 7.5 | 0.0 | 2.3 | 71.6* | -6.8 | -6.7 | CC(=O)n1nc(-c2ccccc2)nc1NCc1cccs1 |
| nt | nt | nt | nt | nt | -22.5 | S=c1nccc(-c2ccc(Cl)cc2)[nH]1 |
| -0.8 | 2.6 | 13.0 | + | -3.0 | nt | Cc1nc2ccccn2c1-c1ccnc(=S)[nH]1 |
| nt | nt | nt | nt | nt | -14.4 | O=C(C[C@H]1CC[C@H]2[C@@H](COC[C@@H](O)CN2C(=O)c2ccncc2)O1)NCc1cccc(F)c1 |
| nt | nt | nt | nt | nt | -10.6 | C[C@H](CO)N1C[C@H](C)[C@@H](CN(C)S(=O)(=O)c2ccccc2)Oc2cc(C#Cc3ccncc3)ccc2S1(=O)=O |
| -2.2 | -2.1 | 21.3 | 37.4* | -11.1 | -2.9 | CCOC(=O)c1ccc2[nH]c3c(c2c1)CCCCC3=O |
| nt | 0.9 | nt | 33.1* | -1.2 | -9.8 | Cc1ccc(C(=O)NC(=S)NCC(=O)c2ccccc2)cc1 |

Reprinted at random: 3 records from the list
| CAL PDZ FP-2 | CDK5 inh | Dyrk1A ADPGlo | CAL PDZ FP-1 | dFosB activator | UUG fidelity | compound |
| --- | --- | --- | --- | --- | --- | --- |
| 7.5 | 0.0 | 2.3 | 71.6* | -6.8 | -6.7 | CC(=O)n1nc(-c2ccccc2)nc1NCc1cccs1 |
| -0.2 | 0.2 | -3.2 | 31.8* | -7.2 | -0.9 | COCCOCC(O)CN1CCN(c2ccccc2)CC1 (configuration not stated) |
| nt | nt | nt | nt | nt | -22.5 | S=c1nccc(-c2ccc(Cl)cc2)[nH]1 |

New compounds follow
| CAL PDZ FP-2 | CDK5 inh | Dyrk1A ADPGlo | CAL PDZ FP-1 | dFosB activator | UUG fidelity | compound |
| --- | --- | --- | --- | --- | --- | --- |
| -1.1 | 0.9 | 4.0 | -3.0 | -11.0 | -17.4 | O=C(CNC(=S)NC(=O)c1cccs1)c1ccccc1 |
| nt | nt | nt | nt | nt | -13.6 | C[C@H]1CN([C@@H](C)CO)C(=O)c2cccc(NC(=O)C3CCOCC3)c2O[C@H]1CN(C)Cc1ccc(C(=O)O)cc1 |
| 0.1 | -0.6 | -5.5 | 17.4 | 10.0 | -17.1 | O=C(Nc1ccnn1C1CCN(C2CCC2)CC1)c1ccccc1Cl |
| -0.1 | -0.8 | -5.5 | 68.6* | -2.0 | 2.0 | O=C(Nc1ccnn1C1CCN(C2CCC2)CC1)c1ccccc1 |
| nt | -0.3 | 18.5 | 33.4* | -1.2 | -18.1 | Clc1ccc(OCCCc2nc(-c3ccncc3)no2)c(Cl)c1 |
| -0.7 | 0.4 | -2.2 | 74.1* | 1.1 | -6.6 | Cn1c(C(=O)N2CCN(c3ccccc3)CC2)cc2cc(Cl)ccc21 |
| nt | nt | nt | nt | nt | -0.3 | O=C(C[C@@H]1CC[C@H](NS(=O)(=O)c2ccc(F)cc2)[C@H](CO)O1)NCc1ccncn1 |
| 0.2 | 0.0 | -1.0 | 57.9* | -5.6 | nt | CS(=O)(=O)c1ccc(C(=O)NC2CCCc3ccccc32)cc1 (configuration not stated) |
| -1.4 | 0.5 | 3.5 | 59.1* | -2.1 | -2.9 | CN(C)c1cccc(C(=O)NC2CCCc3ccccc32)c1 (configuration not stated) |
| nt | nt | nt | nt | nt | -8.1 | O=[N+]([O-])c1ccccc1S(=O)(=O)N1CCN(Cc2ccc(OCCO)cc2)CC1 |
| -1.8 | 0.0 | nt | 49.2* | -5.9 | -21.3 | Cc1ccc(S(=O)(=O)N(C)C)cc1NC(=S)N1CCc2ccccc21 |
| -1.0 | 2.0 | -0.1 | -4.4 | -0.8 | nt | CN(C)S(=O)(=O)c1cccc(NC(=S)N2CCc3ccccc32)c1 |
| -0.4 | 2.5 | 3.7 | 58.3* | -2.9 | -10.3 | O=S(=O)(c1ccc2c(c1)CCCN2)N1CCCC1 |
| nt | nt | nt | nt | nt | -11.6 | C[C@@H]1CCCCO[C@@H](CN(C)S(=O)(=O)c2ccccc2)[C@H](C)CN([C@@H](C)CO)C(=O)c2cc(NS(C)(=O)=O)ccc2O1 |
| -0.5 | 0.8 | 2.5 | 57.6* | -6.4 | nt | Cc1ccc(CN2C(=O)c3ccccc3NC2c2ccccn2)cc1 (configuration not stated) |
| nt | nt | nt | nt | nt | 9.0 | COc1ccc(NC(=O)Nc2ccc3c(c2)C(=O)N([C@@H](C)CO)C[C@@H](C)[C@@H](CN(C)C(=O)Cc2ccccc2)OCCCC[C@@H](C)O3)cc1 |
| nt | nt | nt | nt | nt | -11.1 | Cc1noc(C)c1S(=O)(=O)Nc1ccc2c(c1)C(=O)N([C@H](C)CO)C[C@H](C)[C@@H](CN(C)Cc1ccncc1)OCCCC[C@@H](C)O2 |
| -2.1 | -1.6 | 1.0 | 0.6 | 21.1* | 6.6 | COc1ccc(NC(=O)c2ccc(-c3ccc(-c4noc(C)n4)cc3C)cc2)cc1N1CCN(C)CC1 |
| nt | nt | nt | nt | nt | -1.3 | C[C@H](CO)N1C[C@H](C)[C@@H](CN(C)S(=O)(=O)c2ccc(F)cc2)Oc2ncc(/C=C/c3ccccc3)cc2C1=O |
| -3.5 | -0.8 | 1.7 | -2.0 | 2.7 | nt | CC(Sc1nc2ccccc2s1)C(=O)NCc1ccc2c(c1)OCO2 (configuration not stated) |
| 9.5 | 0.6 | nt | 64.0* | 0.0 | -20.2 | Cc1csc(SC(C)C(=O)NCc2ccc3c(c2)OCO3)n1 (configuration not stated) |
| 0.1 | 0.7 | -4.0 | + | -0.4 | -7.6 | Oc1ccccc1C=NCCCCCCN=Cc1ccccc1O |
| nt | nt | nt | nt | nt | -13.7 | CC(=O)Nc1ccc(NC(=O)c2cc(-c3ccc(F)cc3C)n[nH]2)cc1 |
| -1.4 | -0.1 | -4.3 | -2.8 | 22.1* | 9.9 | CC(=O)Nc1ccc(NC(=O)c2cc(-c3cc(C)cc(C)c3O)n[nH]2)cc1 |
| -1.9 | nt | 0.8 | -5.8 | 23.1* | -13.1 | Cc1cc(C)c(O)c(-c2cc(C(=O)Nc3ccc(S(=O)(=O)N4CCOCC4)cc3)[nH]n2)c1 |
| nt | nt | nt | nt | nt | 0.1 | COCC#Cc1cnc2c(c1)C(=O)N([C@H](C)CO)C[C@H](C)[C@H](CN(C)C)O2 |
| -3.8 | 1.2 | -5.9 | -2.2 | 1.2 | nt | C=CCn1c(-c2ccccc2OC)n[nH]c1=S |
| -0.8 | 2.9 | nt | 49.7* | -3.5 | -11.6 | C=CCn1c(-c2cccc3ccccc23)n[nH]c1=S |
| -0.2 | 0.3 | -1.7 | 52.4* | -6.4 | -6.6 | Cc1ccc(OCC(=O)Nc2c(C)ccc3nsnc23)cc1 |
| -1.0 | -1.2 | -2.8 | 9.1 | -0.8 | 5.9 | Cc1ccc2nsnc2c1NC(=O)COc1ccccc1 |
| 0.3 | 0.5 | nt | 41.1* | -4.3 | nt | C[N+](C)(C)CCCN(Cc1ccc2c(c1)OCO2)C(=O)NC1CCCCC1 |
| nt | nt | nt | nt | nt | -4.5 | C[C@H](CO)N1C[C@H](C)[C@@H](CN(C)CC2CC2)Oc2ccc(NC(=O)Cn3cnnn3)cc2CC1=O |
| 0.4 | 0.2 | 12.2 | -4.6 | -0.3 | -8.5 | COc1cccc(OC)c1C(=O)NCCOc1cc(C)cc(C)c1 |
